Experimental data published in article PMC10268005, “Investigation of adenosine A1 receptor-mediated β-arrestin 2 recruitment using a split-luciferase assay” (Frontiers in Pharmacology, 2023).

Protein sequences, listed by entry. Tags and fused reporters are not part of them.
UniProt P30542, whole entry: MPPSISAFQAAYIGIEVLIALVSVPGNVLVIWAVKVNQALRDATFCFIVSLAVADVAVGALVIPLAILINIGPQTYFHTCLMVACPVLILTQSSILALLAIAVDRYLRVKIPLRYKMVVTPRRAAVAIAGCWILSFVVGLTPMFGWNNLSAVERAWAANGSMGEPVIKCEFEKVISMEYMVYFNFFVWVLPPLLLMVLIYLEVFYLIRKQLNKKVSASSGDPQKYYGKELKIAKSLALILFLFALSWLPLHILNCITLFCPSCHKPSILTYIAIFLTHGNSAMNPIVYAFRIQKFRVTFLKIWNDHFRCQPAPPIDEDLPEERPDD

Molecular target: T1, human A1AR (Homo sapiens, UniProt P30542)
T1 construct: was generated by amplifying the coding region of A1AR; expressed in transfected cells
Experiment: A1AR NanoBit split-luciferase β-arrestin 2 recruitment assay
Assay type: cell-based
Conditions: for β-arrestin 2 recruitment (AUC): mean ± SEM, n = 3

CCNC(=O)[C@H]1O[C@@H](n2cnc3c(N)ncnc32)[C@H](O)[C@@H]1O [NECA, 5′-N-ethylcarboxamidoadenosine]
initial rate of β-arrestin 2 recruitment (10 µM agonist, rise-and-fall equation fit (Hoare plug-in)): 12.858 ± 0.277 fold change/min | β-arrestin 2 recruitment (AUC) (agonist 0.1 µM): 9748 ± 407 AUC | β-arrestin 2 recruitment (AUC) (agonist 1 µM): 19,461 ± 1809 AUC | change in β-arrestin 2 recruitment compared to control (0.1% DMSO) (agonists at 0.1 and 1 µM, one-way ANOVA, Dunnett's): significant increase
